Where “and” joins values, the source holds several entries; their conditions need not be identical. Equal values may be shown once.
Biological target: hAChE (Homo sapiens, UniProt P22303)
Experiment: biochemical
Assay type: binding

Amino acid sequences for entries named in this document (tags omitted). Residues count along the entry.
UniProt P22303, 32-574: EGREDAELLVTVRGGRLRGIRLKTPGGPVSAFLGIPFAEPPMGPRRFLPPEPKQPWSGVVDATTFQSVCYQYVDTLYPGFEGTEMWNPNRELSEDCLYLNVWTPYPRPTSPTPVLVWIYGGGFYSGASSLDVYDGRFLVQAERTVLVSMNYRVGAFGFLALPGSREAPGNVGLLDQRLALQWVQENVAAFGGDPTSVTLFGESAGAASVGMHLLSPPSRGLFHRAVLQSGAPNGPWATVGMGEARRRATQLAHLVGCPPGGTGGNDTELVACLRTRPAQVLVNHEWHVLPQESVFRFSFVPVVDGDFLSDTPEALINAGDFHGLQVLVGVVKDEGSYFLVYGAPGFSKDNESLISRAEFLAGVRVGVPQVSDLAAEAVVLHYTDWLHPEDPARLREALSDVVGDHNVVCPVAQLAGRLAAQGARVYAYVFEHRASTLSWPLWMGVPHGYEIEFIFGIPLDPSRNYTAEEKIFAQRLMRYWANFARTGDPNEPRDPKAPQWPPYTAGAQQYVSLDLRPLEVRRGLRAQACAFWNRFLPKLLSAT

CC[N+](C)(CC)CCC[n+]1c(-c2ccccc2)c2cc(N)ccc2c2ccc(N)cc21 [Propidium, propidium iodide]
Kd: 6.7 ± 0.7 µM
n (±SD), binding stoichiometry (pH 8): ~ 1 and 0.8 ± 0.1
ΔH (±SD), binding heat (pH 8): -10.9 ± 1.2 kcal/mol

From article PMC6149722, “Comparison of the Binding of Reversible Inhibitors to Human Butyrylcholinesterase and Acetylcholinesterase: A Crystallographic, Kinetic and Calorimetric Study” (Molecules : A Journal of Synthetic Chemistry and Natural …, 2017)
